Results: article PMC5359770 (ACS chemical biology, 2016)

The chains behind the UniProt entries cited, without tags or fusion partners.
UniProt O95372, whole entry L78I/A85S/P86Q/H152R/R153A/A154S: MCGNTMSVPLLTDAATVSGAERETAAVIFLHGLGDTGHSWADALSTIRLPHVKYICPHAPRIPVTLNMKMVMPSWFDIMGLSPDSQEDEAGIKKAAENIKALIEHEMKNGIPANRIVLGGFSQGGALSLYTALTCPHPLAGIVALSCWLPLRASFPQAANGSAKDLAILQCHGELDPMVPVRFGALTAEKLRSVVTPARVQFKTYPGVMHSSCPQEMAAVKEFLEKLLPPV

Target: APT2-L78I/A85S/P86Q/H152R/R153A/A154S (Homo sapiens, UniProt O95372, A154S/A85S/H152R/L78I/P86Q/R153A)
Details: ResOAc substrate

Ki: 430 nM
Substance: ML348
